Results: US20230046947A1, “REACTIVE CONJUGATES” (Debiopharm Research & Manufacturing S.A., priority 2019, published 2023)

Assays:
Assay type in all cases: cell-based
[1] = test system: SKBR-3 (HER2+) breast adenocarcinoma cell line; assay: Flow cytometry binding to SKBR-3 cells; conditions: 0.003 to 30 μg/mL, secondary anti-human IgG Fc Alexa 488
Protocol: (§1) For SK-BR-3 cells, the concentration of antibody or antibody conjugate ranged from 0.003 to 30 μg/mL ( 1/10 dilutions were made). For MD-MB-231 cells, only 3 and 30 μg/mL were used. […] Dead cells were excluded with DRAQ7. Error bars: SD (n=2).
(§2) Subsequently, a fluorescent secondary antibody specific for trastuzumab was added to measure the binding by fluorescence.

[2] = test system: MDA-MB-231 (HER2−) breast adenocarcinoma cell line; assay: Flow cytometry binding to MDA-MB-231 cells; conditions: 3 and 30 μg/mL, negative control cells
Protocol: as §1, §2

[3] = test system: MDA-MB33 (HER2−) breast adenocarcinoma cell line; assay: Flow cytometry binding to MDA-MB33 cells; conditions: negative control cells, data not shown

| Substance | binding to SKBR-3 cells, median fluorescence intensity (MFI) [1] | binding to MDA-MB-231 cells [2] | binding to MDA-MB33 cells [3] |
| --- | --- | --- | --- |
| trastuzumab: unlabeled monoclonal IgG1 antibody [reference compound] | increased in a dose-response manner | No binding |  |
| trastuzumab-DOTA conjugate: trastuzumab-DOTA conjugate prepared in the same manner as in Example 6 (similar to conjugate 8; DoC=0.89) | does not affect antibody binding | No binding |  |
| Conjugate 12: trastuzumab-FITC (random) conjugate, 10 eq of FITC, 16 hours |  |  | No binding |
